This is one part of the list.
The compounds below were run on A. baumannii ATCC 17978 (assay: relative growth (fraction of control); higher = less inhibition). Conditions: 50 µM.

Row | SMILES | relative growth
1 | C[C@@H]1CN([C@H](C)CO)S(=O)(=O)c2ccc(C#CC3CC3)cc2O[C@@H]1CN(C)Cc1ccccc1F | 0.865
2 | COc1ccc(C#Cc2cnc3c(c2)C(=O)N([C@H](C)CO)C[C@@H](C)[C@@H](CN(C)C(=O)CN(C)C)O3)cc1 | 0.877
3 | O=C(C[C@@H]1C=C[C@H](NS(=O)(=O)c2ccc(F)cc2)[C@H](CO)O1)NCc1ccc(Cl)c(Cl)c1 | 0.769
4 | Nc1nnc(SC[C@@H](O)CO)s1 | 1.01
5 | COCCCNC(=O)[C@@]1(Sc2ccc(C)cc2)CC(=O)N(C2Cc3ccccc3C2)[C@@H]1c1ccc(CO)cc1I | 1.09
6 | N[C@@H](CCc1ccccc1Cl)c1ccc2c(c1)OCCO2 | 0.748
7 | O=C(C[C@@H]1C[C@@H]2c3cc(NS(=O)(=O)c4ccccc4)ccc3O[C@@H]2[C@H](CO)O1)NC1CCCCC1 | 0.955
8 | Clc1ccc(-c2onc3cc(-c4ccccc4)ccc23)cc1 | 1.1
9 | CC(=O)OC1CC[C@@]2(C)C(CC[C@]3(C)C2C2OC2[C@]24OC(=O)[C@@]5(CCC(C)C(C)C52)CC[C@]43C)C1(C)C (stereo not given in full) | 1.07
10 | NC[C@@H]1O[C@H](O[C@@H]2[C@@H](CO)OC(O[C@@H]3[C@@H](O)[C@H](N)C[C@H](N)[C@H]3OC3O[C@H](CN)[C@@H](O)[C@H](O)[C@H]3N)[C@@H]2O)[C@H](N)[C@@H](O)[C@@H]1O.O=S(=O)(O)O.O=S(=O)(O)O.O=S(=O)(O)O (stereo not given in full) | 1.02
11 | CN(C)CCCCNC(=O)[C@H]1C[C@H]2C(=O)NCC(=O)N2[C@H]1c1cccc(OCCO)c1 | 0.888
12 | COCC(=O)N1C[C@@H](C)[C@H](OC)CN(C)C(=O)c2ccc(NC(=O)c3ccc(OC)cc3)cc2OC[C@@H]1C | 1.24
13 | CO[C@H]1CN(C)C(=O)c2cc(NS(=O)(=O)CC(F)(F)F)ccc2OC[C@H](C)N(C(=O)NC(C)C)C[C@H]1C | 0.972
14 | CN(C)c1cc[n+](C(=O)N2CCOCC2)cc1 | 1.08
15 | COc1ccc(C(=O)Nc2ccc(CN3C(=O)[C@]4(O[C@H](CC(=O)N5CCC[C@H]5CO)[C@@H]([Si](C)(C)c5ccc(OC)cc5)[C@@H]4C)c4ccccc43)cc2)cc1 | 1.01
16 | CN(C)C(=O)C[C@@H]1CC[C@@H]2[C@H](COC[C@H](O)CN2S(=O)(=O)c2ccccc2)O1 | 1.08
17 | COc1ccc(-c2cnc3c(c2)C(=O)N([C@@H](C)CO)C[C@H](C)[C@H](CN(C)C(=O)C2CCOCC2)O3)cc1 | 1.12
18 | CC1(C)[C@@H](OC(=O)CCC(=O)O)CC[C@@]2(C)[C@H]1CC[C@]1(C)[C@H]2C(=O)C=C2[C@@H]3C[C@@](C)(C(=O)O)CC[C@]3(C)CC[C@]21C | 1.14
19 | N[C@H]1CC[C@H](CCn2cc(-c3ccccn3)nn2)O[C@@H]1CO | 0.9
20 | CC(C)(C)OC(=O)C[C@H]1CC=CC[C@H](CC(=O)NCCO)C(=O)N[C@@H](Cc2c[nH]c3ccccc23)COC1=O | 1.01
21 | COc1ccccc1CNC(=O)C[C@H]1CC[C@@H]2[C@H](COC[C@@H](O)CN2C(=O)Nc2ccc(Cl)cc2)O1 | 0.993
22 | CC(C)(C)c1ccc(C(=O)Nc2cccc(C(F)(F)F)c2)cc1 | 1.04
23 | c1cn2c3c(n1)CCCc3c1cc(C3CCCCC3)ccc12 | 1.14
24 | Cc1cc2c(cc1C(=O)c1ccc(C(=O)O)cc1)C(C)(C)CCC2(C)C | 1.05
25 | C=C1CCC(=O)C(C)CCC2C1CC2(C)C (stereo not given) | 1.15
26 | C[C@@H]1CN([C@H](C)CO)S(=O)(=O)c2ccc(C#CC3CCCCC3)cc2O[C@H]1CN(C)C(=O)Cc1ccncc1 | 0.894
27 | O=C(C[C@H]1C[C@H]2c3cc(NS(=O)(=O)c4ccc(F)cc4)ccc3O[C@H]2[C@H](CO)O1)NCCc1ccccc1 | 0.938

Row | SMILES | relative growth
28 | Cc1cc([N+](=O)[O-])nn1CC(=O)N1CCOCC1 | 0.974
29 | O=C(NO)c1cccc(C(=O)N/N=C/[C@H](O)[C@@H](O)[C@H](O)[C@H](O)CO)c1 | 1.12
30 | COc1ccc(C#Cc2ccc3c(c2)[C@]2(C(=O)N3)[C@H](C(=O)Nc3nc4ccccc4s3)[C@H]3C(=O)O[C@H](c4ccccc4)[C@H](c4ccccc4)N3[C@@H]2c2ccccc2OCCO)cc1 | 1.1
31 | CCCN(C)C[C@H]1Oc2cc(C#Cc3ccccc3OC)ccc2S(=O)(=O)N([C@@H](C)CO)C[C@H]1C | 0.964
32 | O=C(C[C@H]1CC[C@@H]2[C@H](COC[C@H](O)CN2C(=O)C2CC2)O1)NCc1ccncc1 | 1.12
33 | Nc1nc(=O)c2ncn(COCCO)c2[nH]1 | 0.967
34 | Nc1nnnn1CC(=O)OCC(=O)Nc1ccccc1 | 0.869
35 | CC(=O)O[C@]1(C(C)=O)CCC2C3C=C(C)C4=CC(=O)CCC4(C)C3CCC21C (stereo not given in full) | 1.11
36 | CCn1c(-n2nc(C)cc2C)nc2c1c(=O)n(CC(N)=O)c(=O)n2C | 0.986
37 | CC(=O)N[C@H]1C(=O)Nc2ccc(F)cc21 | 1.03
38 | Cc1cc(O)cc(O)c1C(=O)O | 0.956
39 | COCCOC(=O)N1C(=O)[C@@]2(c3cc(C#CCCO)ccc31)[C@H](C(=O)N1CCc3cc(OC)c(OC)cc3C1)[C@H]1C(=O)O[C@H](c3ccccc3)[C@H](c3ccccc3)N1[C@@H]2c1ccccc1OCCO | 1.03
40 | CC(C)NC(=O)N[C@@H]1C=C[C@H](CC(=O)NCCN2CCCC2)O[C@H]1CO | 0.957
41 | CCc1c(C(=O)OC)nnc2cc(C)nn12 | 1.14
42 | O=C1NC(=O)[C@@]2(CC[C@H](C(=O)O)C2)N1 | 1.01
43 | C[C@H]1CN([C@@H](C)CO)S(=O)(=O)c2ccc(C3=CCCC3)cc2O[C@@H]1CN(C)C(=O)C1CCOCC1 | 0.99
44 | O=C(O)c1cn(-c2ccccc2)nn1 | 1.01
45 | CN(C)[C@@H]1C(O)=C(C(N)=O)C(=O)[C@@]2(O)C(O)=C3C(=O)c4c(O)ccc(Cl)c4[C@@](C)(O)[C@H]3C[C@@H]12.Cl | 0.171
46 | CCS(=O)(=O)Nc1ccc2c(c1)C(=O)N(C)C[C@H](OC)[C@@H](C)CN(Cc1ccccn1)[C@H](C)CO2 | 1.06
47 | O=C(N[C@@H]1CC[C@H](CC(=O)N2CCOCC2)O[C@H]1CO)c1ccccn1 | 1.04
48 | CCOC(=O)CNc1n[nH]c(=O)[nH]c1=O | 1.1
49 | NNC(=O)[C@@H]1C(c2ccccc2)[C@H]1C(=O)NN (stereo not given in full) | 0.995
50 | CN(C)C(=O)C[C@@H]1CC[C@H]2[C@@H](COC[C@H](O)CN2S(=O)(=O)c2ccccc2)O1 | 0.937
51 | Cc1[nH]c(=O)[nH]c(=O)c1S(=O)(=O)NCc1ccccn1 | 0.784
52 | COc1ccc(S(=O)(=O)N(C)C[C@@H]2Oc3cc(Br)ccc3S(=O)(=O)N([C@H](C)CO)C[C@@H]2C)cc1 | 0.921
53 | C[C@@H](N)c1cnn(-c2ccc(F)cc2)c1 | 1.03
54 | CC(=O)NCCCC[C@@H]1NC(=O)[C@@H]2C[C@H](C(=O)NCCCCCNC(=O)CS)[C@H](c3cccc(OCCO)c3)N2C1=O | 0.86

Row | SMILES | relative growth
55 | CCO[C@@H]1OC(C(=O)N2CCN(Cc3ccc4c(c3)OCO4)CC2)=C[C@H](c2ccc3c(c2)OCO3)[C@H]1CCCO | 0.813
56 | CO[C@H]1CN(C)C(=O)c2ccc(NS(=O)(=O)c3cn(C)cn3)cc2OC[C@H](C)N(Cc2cccc(F)c2)C[C@H]1C | 1.09
57 | CC(=O)O[C@H]1CC2CCC3C(CC[C@@]4(C)C3C[C@H]([N+]3(C)CCCCC3)[C@@H]4OC(C)=O)[C@@]2(C)C[C@@H]1N1CCCCC1.[Br-] (stereo not given in full) | 0.949
58 | O=C(CCCCC(=O)N/N=C/[C@@H](O)[C@H](O)[C@H](O)CO)NO | 0.912
59 | CC(=O)NC[C@H]1CN(c2ccc(N3CCOCC3)c(F)c2)C(=O)O1 | 0.533
60 | Cc1ccc(O)c(C(C)(C)C)c1 | 1.01
61 | O=C(N1CCOCC1)[C@@]1(CCS(=O)(=O)c2ccccc2)COC(c2ccc(OCCCO)cc2)=N1 | 0.945
62 | CCCNC(C)C(=O)Nc1ccccc1C.Cl (stereo not given) | 0.958
63 | C[C@@H]1CN([C@@H](C)CO)C(=O)c2cc(C#CCC3CCCC3)cnc2O[C@H]1CN(C)C(=O)c1cnccn1 | 0.866
64 | C[C@@H]1CN([C@@H](C)CO)S(=O)(=O)c2ccc(C#Cc3cccc(F)c3)cc2O[C@@H]1CN(C)C(=O)CN1CCOCC1 | 0.933
65 | Cc1noc(C)c1NC(=O)N(C)C[C@H]1Oc2ncc(C#CCN(C)C)cc2C(=O)N([C@H](C)CO)C[C@@H]1C | 1.13
66 | COC(=O)[C@@H]1C(O)CC[C@H]2CN3CCc4c([nH]c5ccccc45)[C@@H]3C[C@@H]21 (stereo not given in full) | 1.08
67 | NC(=O)c1cc[n+](CC2=C(C(=O)[O-])N3C(=O)[C@@H](NC(=O)Cc4cccs4)[C@H]3SC2)cc1 | 1.06
68 | O=C1C(O)=C(O)C(=O)C(O)=C1O | 1.16
69 | Cc1ccccc1S(=O)(=O)N1C[C@@H](O)COC[C@H]2O[C@H](CC(=O)NCc3ccccc3Cl)CC[C@@H]21 | 0.886
70 | C[C@@H]1CN([C@@H](C)CO)S(=O)(=O)c2ccc(C#Cc3ccc(F)cc3)cc2O[C@H]1CN(C)S(=O)(=O)c1cn(C)cn1 | 1.1
71 | COc1ccc2c(c1)c(CC(=O)OCC(=O)O)c(C)n2C(=O)c1ccc(Cl)cc1 | 1.24
72 | COC(=O)c1cc(=O)n2ccccc2c1C#N | 1.03
73 | CC(C)CCCC(C)[C@H]1CCC2C3CC=C4CC(=O)CC[C@]4(C)C3CC[C@@]21C (stereo not given in full) | 1.37
74 | Cc1cc(C)nc(SCC(=O)NN)n1 | 1.01
75 | Cc1cncc2cccc(S(=O)(=O)N[C@H]3CN[C@@H](COC(=O)NCCOCCOCCN)C3)c12 | 1.03
76 | NNC(=O)c1c(O)c2c([nH]c1=O)CCCC2 | 0.887
77 | S=C1C=C(N2CCCCC2)C[C@H](c2ccc(Cl)cc2)S1 | 0.642
78 | C[C@H]1CN([C@@H](C)CO)S(=O)(=O)c2ccc(C#Cc3ccccc3F)cc2O[C@@H]1CN(C)CC1CCOCC1 | 0.994
79 | NC1=NN(c2ccccc2)C(=O)C1 | 0.52
80 | Nc1ncnc2c1ncn2[C@H]1CC[C@@H](CO)O1 | 1.04

From published antibiotic growth screens (doi:10.1038/s41589-023-01349-8)
